This experiment concerns Escherichia coli. Briefly: Selectivity ratio of Kcat for Escherichia coli MC4100 Beta-Lactamase CMY-2 to Kcat for Escherichia coli MC4100 Beta-Lactamase CMY-30 Val211?Gly211 mutant.

For the compound `O=C(Cc1cccs1)N[C@@H]1C(=O)N2C(C(=O)O)=C(/C=C/c3ccc([N+](=O)[O-])cc3[N+](=O)[O-])CS[C@H]12`, the Ratio came out at 3.
